In publication PMC7859889 (ACS chemical biology, 2020):

Columns and labels:
IFIT1 = test: Multi Gene RT-qPCR, IFIT1; format: cell-based, human; settings: C25cl48 cells, 4.0 ng/ml IFN-β, 24 hrs, relative to HPRT1
TF-1 = TF-1 proliferation assay ref 19; cited from earlier work
HLA-C = test: Multi Gene RT-qPCR, HLA-C; format: cell-based, human; settings: C25cl48 cells, 4.0 ng/ml IFN-β, 24 hrs, relative to HPRT1
ISG15 = test: Multi Gene RT-qPCR, ISG15; format: cell-based, human; settings: C25cl48 cells, 4.0 ng/ml IFN-β, 24 hrs, relative to HPRT1
MX1 = test: Multi Gene RT-qPCR, MX1; format: cell-based, human; settings: C25cl48 cells, 4.0 ng/ml IFN-β, 24 hrs, relative to HPRT1
HLA-B mRNA = test: HLA-B RT-qPCR tertiary assay; format: cell-based, human; settings: control samples assayed during screening
HLA-A = test: Multi Gene RT-qPCR, HLA-A; format: cell-based, human; settings: C25cl48 cells, 4.0 ng/ml IFN-β, 24 hrs, relative to HPRT1

IFN-β: Recombinant human IFN-β (Peprotech, 300–02BC) used to stimulate MHC class I expression
up-regulation of IFIT1 by IFN-β (IFIT1): 100 fold | Reported bioactivity (TF-1): approximately 100 pg/ml | up-regulation of HLA-C by IFN-β (HLA-C): 11 fold | up-regulation of ISG15 by IFN-β (ISG15): 100 fold | cell count response in control titrations (C25cl48 cells): growth inhibition effect | up-regulation of MX1 by IFN-β (MX1): 3100 fold | CTG viability response in control titrations (HLA-B HiBit cells): subtle concentration-response inhibition of cell proliferation | up-regulation of HLA-B by IFN-β (HLA-B mRNA): 42 fold | up-regulation of HLA-A by IFN-β (HLA-A): 3.1 fold
